From patent publication US20230293495A1, “PHARMACEUTICAL FORMULATIONS FOR TREATING DISEASES MEDIATED BY KDM1A” (Imago Biosciences, Inc., priority 2020, published 2023)

Test: Excipient compatibility study: binary mixtures of Compound B and excipient in open vials, assay and related substances (RS)
Assay type: physicochemical
Details: 2 weeks, 50° C./11% RH
Experimental: Phase one of Compound B drug product development was initiated with an excipient compatibility study to identify excipients physically and chemically compatible with Compound B API. Commonly used excipients for oral solid dosage formulations were evaluated for this study including fillers, binders, disintegrants, glidants, lubricants and organic acid stabilizers.
Samples were prepared with a binary mixture of Compound B and an excipients from Table 1. Briefly, each excipient and API were individually weighed and filled in vials, followed by the addition of glass beads. The samples were closed, vortexed, and refrigerated at 2 to 8° C. prior to initiation of study as the sample preparation was executed over a period of 10 days. All vials were removed from the refrigerator and allowed to equilibrate to room temperature, then opened, and stored at the designated storage conditions at the same t=0.
The sample of Compound B API and excipients were stored as binary mixtures in open vials at 50° C./11% RH and 50° C./75% RH conditions and evaluated at t=0, 1 week, and 2 weeks for appearance, assay, and RS.

CN1CCN(C(=O)[C@H](CCCN[C@@H]2C[C@H]2c2ccc(F)cc2)NC(=O)c2ccc(-n3ccnn3)cc2)CC1.Cc1ccc(S(=O)(=O)O)cc1 [Compound B, N—((S)-5-((1R,2S)-2-(4-fluorophenyl)cyclopropylamino)-1-(4-methylpiperazin-1-yl)-1-oxopentan-2-yl)-4-(1H-1,2,3-triazol-1-yl)benzamide ditosylate]
Related substance RRT 1.022: 0.0489 | Related substance RRT 1.081: 0.059%
